The list shows a part of the results, in another mix than the full data. The source made the active and inactive calls.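 The calls were made as follows: active = mean luciferase reporter signal, scaled so untreated is 0 and the glycosylation-blocking control 100, at or above a set limit in every replicate; inconclusive = mean reaches the limit but not every replicate does; inactive = mean below the limit.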
Test: D54 reporter luminescence gain compounds – D54 ERlucT cells, set 2, N-linked glycosylation inhibitor project, primary screen (AID 588692);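 also: luciferase carries N-glycosylation sites so blocking glycosylation raises the light; 0% = median of neutral control wells and 100% = median of 100 nM tunicamycin wells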
Settings: D54 ERlucT glycosylation luciferase reporter, 24 h; at 12.5 µM; hits give high values; percent of 100 nM tunicamycin response

Row | SMILES | reporter increase
1 | Cc1ccc(S(=O)(=O)N(CCCN)CCCc2c(C)nc(N)[nH]c2=O)cc1 | inactive: -7.5%
2 | CCCC1OP(=O)(Nc2ccccc2)OCC1CC (configuration not stated) | inactive: 0.301%
3 | O=C(/C=C/c1ccccc1)OC1CN2CCC1CC2 (configuration not stated) | inactive: -4.54%
4 | CN(C)C1(CNC(=O)c2ccc(S(C)(=O)=O)cc2)CCCCC1 | inactive: 0.299%
5 | CC1CCC(C(C)C)C(OP(=O)(Nc2ccccn2)c2ccccc2)C1 (configuration not stated) | inactive: -7.32%
6 | Cc1ccc(C(=O)OC2CN3CCC2CC3)cc1 (configuration not stated) | inactive: -0.968%
7 | Cc1nn(-c2ccccc2)c2c1P(=O)(N1CCOCC1)N(C)C(c1ccccc1)=N2 (configuration not stated) | inactive: 0.367%
8 | O=[N+]([O-])c1ccc(Nc2ccc(Oc3ccc([N+](=O)[O-])cc3[N+](=O)[O-])cc2)c([N+](=O)[O-])c1 | inactive: 9.56%
9 | O=P(Nc1ccccn1)(c1cccc2ccccc12)c1cccc2ccccc12 | inactive: -1%
10 | Cc1cc(SC(NC=O)C(Cl)(Cl)Cl)ncn1 (configuration not stated) | inactive: 2.1%
11 | CCOC(=O)Nc1cccc([As](=O)(O)O)c1 | inactive: 0.589%
12 | Cc1cc(SC(NC(=O)c2ccccc2)C(Cl)(Cl)Cl)nc(C(C)C)n1 (configuration not stated) | inactive: -0.755%
13 | CCCCOc1ccc(C(=O)NCC2(N3CCCCC3)CCCCC2)cc1OC | inactive: -4.03%
14 | COP(=O)(OC)N1CC1c1ccccc1 (configuration not stated) | inactive: -0.198%
15 | CC1CCNP(=O)(N(CCCl)CCCl)O1 (configuration not stated) | inactive: 0.086%
16 | CCOC(=O)Nc1ccc([As](=O)(O)O)c(O)c1 | inactive: 0.698%
17 | O=C(O)C(O)c1ccc(N(CCCl)CCCl)cc1 (configuration not stated) | inactive: 0.97%
18 | CCOC(=O)c1ccc(NC(=O)C(C)(CCl)SC)cc1 (configuration not stated) | inactive: 3.22%
19 | CSc1ccc(Nc2c([N+](=O)[O-])cc([N+](=O)[O-])cc2[N+](=O)[O-])cc1 | inactive: 1.72%
20 | O=C(OC1CN2CCC1CC2)c1cccc([N+](=O)[O-])c1 (configuration not stated) | inactive: -4.07%
21 | O=C(Nc1ccncc1[N+](=O)[O-])c1ccc([N+](=O)[O-])cc1[N+](=O)[O-] | inactive: -7.86%
22 | O=C(COc1ccccc1)OC1CN2CCC1CC2 (configuration not stated) | inactive: 0.155%
23 | O=C(O)C(=O)c1ccc(N(CCCl)CCCl)cc1 | inactive: -0.264%
24 | COC(=O)C1(C)COP(=O)(N2CCCC2)OC1 (configuration not stated) | inactive: 0.848%

Row | SMILES | reporter increase
25 | COP1(=S)c2c(C)nn(CCC#N)c2N=C(c2ccc(F)cc2)N1C (configuration not stated) | inactive: 2.64%
26 | COc1ccc(N/C(=N/P(=O)(N2CCOCC2)N2CCOCC2)N2CCOCC2)cc1 | inactive: 1.42%
27 | O=[N+]([O-])c1cc(Oc2ccc([N+](=O)[O-])cc2C(F)(F)F)cc([N+](=O)[O-])c1 | inactive: -1.73%
28 | COc1cc(I)ccc1[As](=O)(O)O | inactive: 0.129%
29 | COc1ccc2nc(NP(=O)(c3ccccc3)c3ccccc3)sc2c1 | inactive: 0.279%
30 | O=P1(N(CCCl)CCCl)OCCCN1CCCl (configuration not stated) | inactive: 1.39%
31 | O=P1(N(CCCl)CCCl)Nc2ccccc2N1 | inactive: -0.745%
32 | Cc1cc(=O)[nH]c(N[N+](=O)[O-])n1 | inactive: 0.704%
33 | O=C(OC1CN2CCC1CC2)C12CC3CC(CC(C3)C1)C2 (configuration not stated) | inactive: 3.4%
34 | Cc1c2c(nc3ccccc13)SC(C(Cl)Cl)C2 (configuration not stated) | inactive: 1.35%
35 | O=[N+]([O-])c1cc([N+](=O)[O-])c(-c2ccn[nH]2)s1 | inactive: 3.84%
36 | CCN(CC)C(=S)SC(NC=O)C(Cl)(Cl)Cl (configuration not stated) | inactive: 1.04%
37 | O=C(OC1CN2CCC1CC2)c1cccc2[nH]cnc12 (configuration not stated) | inactive: -5.31%
38 | CC(C)NC(=O)NP(=O)(Oc1ccccc1)Oc1ccccc1 | inactive: -1.91%
39 | CC(C)c1ccc(OP(=O)(Nc2ccccn2)Oc2ccccc2F)cc1 (configuration not stated) | inactive: -3.35%
40 | COC(=O)C1(C)COP(=O)(N2CCCCCC2)OC1 (configuration not stated) | inactive: -7.7%
41 | ClCCSc1nnc(-c2cccnc2)o1 | inactive: 1.77%
42 | Cc1ccc2nc3c(c(C)c2c1)CC(C(Cl)Cl)S3 (configuration not stated) | inactive: 1.09%
43 | Cc1ccc(OP(=O)(Nc2ccc([N+](=O)[O-])cn2)Oc2ccc(C)cc2)cc1 | inactive: -1.21%
44 | COc1cc(C(=O)NCC2(N3CCOCC3)CCCCC2)ccc1OCC(C)C | inactive: -6.36%
45 | O=[N+]([O-])c1ccc(-c2cc([N+](=O)[O-])c(O)c([N+](=O)[O-])c2)cc1 | inactive: 0.385%
46 | O=[As](O)(c1ccc(O)cc1)c1ccccc1O | inactive: 2.35%
47 | C[As](=O)(O)c1cccc(C(=O)O)c1 | inactive: 1.75%

Reference: PubChem BioAssay AID588692 (Broad Institute, 2011)
